# From CN115252762A, “一种高分子化合物的生长因子结合用途” (East China University of Science and Technology, priority 2021, dated 2022)
# B1: BMP-2: bone morphogenetic protein-2 (protein, UniProt P12643 283-396, looked up)
# Bone morphogenetic protein 2: QAKHKQRKRLKSSCKRHPLYVDFSDVGWNDWIVAPPGYHAFYCHGECPFPLADHLNSTNHAIVQTLVNSVNSKIPKACCVPTELSAISMLYLDENEKVVLKNYQDMVVEGCGCR
# System: C2C12 cells [C2C12细胞]
# Experiment: Osteogenic differentiation of C2C12 on BMP-2-loaded gelatin sponge (RT-qPCR, western blot)
# Type: cell-based, mouse
# Conditions: compared with pure medium (Ctrl); 3 and 7 days; 1 μg BMP-2 loaded
molecule,measurement,value
B1,expression of osteogenesis-related proteins,显著增加
